Test results as given in patent publication US12234230B2, “Substituted benzyl-triazole compounds for Cbl-b inhibition, and further uses thereof” (Nurix Therapeutics, Inc., priority 2019, dated 2025).

Tested on: primary human total T-cells
Assay: Primary human total T-cell activation (IL-2 secretion, CD25 surface staining), Biological Example 2
Settings: anti-CD3 and anti-CD28 co-stimulation, fold change over baseline; for CD25 staining CD3/CD28 1 μM: 1 μM inhibitor; for CD25 staining CD3/CD28 0.3 μM: 0.3 μM inhibitor

Row | Compound | CD25 staining CD3/CD28 1 μM | CD25 staining CD3/CD28 0.3 μM
1 | C[C@@H]1CN(C(C)(C)c2cc3c(c(C(F)(F)F)c2)CN(c2cccc(C4(c5nncn5C)CC5(CC5)C4)c2)C3=O)CCO1 [Compound 45, (R)-2-(3-(5-(4-methyl-4H-1,2,4-triazol-3-yl)spiro[2.3]hexan-5-yl)phenyl)-6-(2-(2-methylmorpholino)propan-2-yl)-4-(trifluoromethyl)isoindolin-1-one] | A (A indicates >1.39 fold) | 
2 | C[C@@H]1CN(Cc2cc3c(c(C(F)(F)F)c2)CN(c2cccc([C@@H](c4nncn4C)C4CCC4)c2)C3=O)CCC1(F)F [Compound 2, 2-(3-((S)-cyclobutyl(4-methyl-4H-1,2,4-triazol-3-yl)methyl)phenyl)-6-(((R)-4,4-difluoro-3-methylpiperidin-1-yl)methyl)-4-(trifluoromethyl)isoindolin-1-one] | A (A indicates >1.39 fold) | A (A indicates >1.39 fold)
3 | C[C@@H]1CN(Cc2cc3c(c(C(F)(F)F)c2)CN(c2cccc([C@]4(c5nncn5C)C[C@@H](O)C4)c2)C3=O)CCC1(F)F [Compound 31, 6-(((R)-4,4-difluoro-3-methylpiperidin-1-yl)methyl)-2-(3-((1s,3S)-3-hydroxy-1-(4-methyl-4H-1,2,4-triazol-3-yl)cyclobutyl)phenyl)-4-(trifluoromethyl)isoindolin-1-one] | A (A indicates >1.39 fold) | A (A indicates >1.39 fold)
4 | C[C@@H]1CN(Cc2cc3c(c(C(F)(F)F)c2)CN(c2cccc([C@]4(c5nncn5C)C[C@@H](C)C4)c2)C3=O)CCO1 [Compound 24, 2-(3-((1s,3S)-3-methyl-1-(4-methyl-4H-1,2,4-triazol-3-yl)cyclobutyl)phenyl)-6-(((R)-2-methylmorpholino)methyl)-4-(trifluoromethyl)isoindolin-1-one] | C (C indicates <1.24 fold) | C (C indicates <1.24 fold)
5 | Cc1cc(C(=O)Nc2cccc([C@H](c3nncn3C)C3CCC3)c2)nc(C2CC2)n1 [Compound 13, (R)—N-(3-(cyclobutyl(4-methyl-4H-1,2,4-triazol-3-yl)methyl)phenyl)-2-cyclopropyl-6-methylpyrimidine-4-carboxamide] | C (C indicates <1.24 fold) | C (C indicates <1.24 fold)
6 | C[C@H]1CCCN(Cc2cc3c(c(C(F)(F)F)c2)CN(c2cccc([C@]4(c5nncn5C)C[C@H](CC#N)C4)c2)C3=O)C1 [Compound 50, 2-((1S,3r)-3-(4-methyl-4H-1,2,4-triazol-3-yl)-3-(3-(6-(((S)-3-methylpiperidin-1-yl)methyl)-1-oxo-4-(trifluoromethyl)isoindolin-2-yl)phenyl)cyclobutyl)acetonitrile] | A (A indicates >1.39 fold) | A (A indicates >1.39 fold)
7 | CO[C@H]1C[C@@](c2cccc(N3Cc4c(cc(CN5CCC(F)(F)[C@H](C)C5)cc4C(F)(F)F)C3=O)c2)(c2nncn2C)C1 [Compound 33, 6-(((R)-4,4-difluoro-3-methylpiperidin-1-yl)methyl)-2-(3-((1s,3S)-3-methoxy-1-(4-methyl-4H-1,2,4-triazol-3-yl)cyclobutyl)phenyl)-4-(trifluoromethyl)isoindolin-1-one] | A (A indicates >1.39 fold) | 
8 | CO[C@H]1C[C@](c2cccc(N3Cc4c(cc(CN5CCC(F)(F)[C@H](C)C5)cc4C(F)(F)F)C3=O)c2)(c2nncn2C)C1 [Compound 36, 6-(((R)-4,4-difluoro-3-methylpiperidin-1-yl)methyl)-2-(3-(trans-3-methoxy-1-(4-methyl-4H-1,2,4-triazol-3-yl)cyclobutyl)phenyl)-4-(trifluoromethyl)isoindolin-1-one] | C (C indicates <1.24 fold) | C (C indicates <1.24 fold)
9 | Cn1cnnc1C1(c2cccc(N3Cc4c(cc(CN5CCC[C@H](C(F)(F)F)C5)cc4C(F)(F)F)C3=O)c2)CC2(CC2)C1 [Compound 44, (S)-2-(3-(5-(4-methyl-4H-1,2,4-triazol-3-yl)spiro[2.3]hexan-5-yl)phenyl)-4-(trifluoromethyl)-6-((3-(trifluoromethyl)piperidin-1-yl)methyl)isoindolin-1-one] | A (A indicates >1.39 fold) | A (A indicates >1.39 fold)
10 | CO[C@H]1C[C@](c2cccc(N3Cc4c(cc(CN5CCC[C@H](C)C5)cc4C(F)(F)F)C3=O)c2)(c2nncn2C)C1 [Compound 37, 2-(3-((1r,3S)-3-methoxy-1-(4-methyl-4H-1,2,4-triazol-3-yl)cyclobutyl)phenyl)-6-(((S)-3-methylpiperidin-1-yl)methyl)-4-(trifluoromethyl)isoindolin-1-one] | A (A indicates >1.39 fold) | 
11 | C[C@@H]1CN(Cc2cc3c(c(C4CC4)n2)CN(c2cccc([C@]4(c5nncn5C)C[C@@H](C)C4)c2)C3=O)CCC1(F)F [Compound 26, 4-cyclopropyl-6-(((R)-4,4-difluoro-3-methylpiperidin-1-yl)methyl)-2-(3-((1s,3S)-3-methyl-1-(4-methyl-4H-1,2,4-triazol-3-yl)cyclobutyl)phenyl)-2,3-dihydro-1H-pyrrolo[3,4-c]pyridin-1-one] | A (A indicates >1.39 fold) | 
12 | Cc1cc(C(=O)Nc2cccc([C@@H](c3nncn3C)C3CCC3)c2)nc(C2CC2)n1 [Compound 12, (S)—N-(3-(cyclobutyl(4-methyl-4H-1,2,4-triazol-3-yl)methyl)phenyl)-2-cyclopropyl-6-methylpyrimidine-4-carboxamide] | C (C indicates <1.24 fold) | C (C indicates <1.24 fold)
13 | C[C@@H]1CN(Cc2cc3c(c(C(F)(F)F)c2)CN(c2cccc(C4(c5nncn5C)CC5(CC5)C4)c2)C3=O)CCC1(F)F [Compound 41, 6-[[(3R)-4,4-difluoro-3-methyl-1-piperidyl]methyl]-2-[3-[5-(4-methyl-1,2,4-triazol-3-yl)spiro[2.3]hexan-5-yl]phenyl]-4-(trifluoromethyl)isoindolin-1-one] | A (A indicates >1.39 fold) | A (A indicates >1.39 fold)
14 | CC(c1cc2c(c(C(F)(F)F)c1)CN(c1cccc([C@@H](c3nncn3C)C3CCC3)c1)C2=O)N1CCC(F)(F)[C@H](C)C1 (stereo partly drawn) [Compound 14, 2-(3-((S)-cyclobutyl(4-methyl-4H-1,2,4-triazol-3-yl)methyl)phenyl)-6-(1-((R)-4,4-difluoro-3-methylpiperidin-1-yl)ethyl)-4-(trifluoromethyl)isoindolin-1-one] | A (A indicates >1.39 fold) | 
15 | CC[C@H]1CN(Cc2cc3c(c(C(F)(F)F)c2)CN(c2cccc([C@]4(c5nncn5C)C[C@@H](C)C4)c2)C3=O)CCO1 [Compound 27, 6-(((S)-2-ethylmorpholino)methyl)-2-(3-((1s,3R)-3-methyl-1-(4-methyl-4H-1,2,4-triazol-3-yl)cyclobutyl)phenyl)-4-(trifluoromethyl)isoindolin-1-one] | A (A indicates >1.39 fold) | 
16 | C[C@@H]1CN(Cc2cc3c(c(C(F)(F)F)c2)CN(c2cccc(C4(c5nncn5C)CC(F)(F)C4)c2)C3=O)CCC1(F)F [Compound 52, 2-{3-[3,3-difluoro-1-(4-methyl-1,2,4-triazol-3-yl)cyclobutyl]phenyl}-6-{[(3R)-4,4-difluoro-3-methylpiperidin-1-yl]methyl}-4-(trifluoromethyl)-3H-isoindol-1-one] | A (A indicates >1.39 fold) | A (A indicates >1.39 fold)
17 | C[C@H]1CCCN(Cc2cc3c(c(C(F)(F)F)c2)CN(c2cccc([C@]4(c5nncn5C)C[C@@H](O)C4)c2)C3=O)C1 [Compound 32, 2-(3-((1s,3R)-3-hydroxy-1-(4-methyl-4H-1,2,4-triazol-3-yl)cyclobutyl)phenyl)-6-(((S)-3-methylpiperidin-1-yl)methyl)-4-(trifluoromethyl)isoindolin-1-one] | A (A indicates >1.39 fold) | A (A indicates >1.39 fold)
18 | Cc1cc(C(=O)Nc2cccc([C@]3(c4nncn4C)C[C@H](C)C3)c2)nc(C2CC2)n1 [Compound 22, 2-cyclopropyl-6-methyl-N-{3-[(1s,3r)-3-methyl-1-(4-methyl-1,2,4-triazol-3-yl)cyclobutyl]phenyl}pyrimidine-4-carboxamide] | C (C indicates <1.24 fold) | C (C indicates <1.24 fold)
19 | C[C@@H]1CN(Cc2cc3c(c(C(F)(F)F)c2)CN(c2cccc(C4(c5nncn5C)COC4)c2)C3=O)CCC1(F)F [Compound 47, 6-[[(3R)-4,4-difluoro-3-methyl-1-piperidyl]methyl]-2-[3-[3-(4-methyl-1,2,4-triazol-3-yl)oxetan-3-yl]phenyl]-4-(trifluoromethyl)isoindolin-1-one] | A (A indicates >1.39 fold) | A (A indicates >1.39 fold)
20 | C[C@H]1CCCN(Cc2cc3c(c(C(F)(F)F)c2)CN(c2cccc([C@]4(c5nncn5C)C[C@@H](CC#N)C4)c2)C3=O)C1 [Compound 48, 2-((1R,3s)-3-(4-methyl-4H-1,2,4-triazol-3-yl)-3-(3-(6-(((S)-3-methylpiperidin-1-yl)methyl)-1-oxo-4-(trifluoromethyl)isoindolin-2-yl)phenyl)cyclobutyl)acetonitrile] | A (A indicates >1.39 fold) | A (A indicates >1.39 fold)
21 | Cn1cnnc1C1(c2cccc(N3Cc4c(cccc4C(F)(F)F)C3=O)c2)CCCC1 [Compound 11, 2-(3-(1-(4-methyl-4H-1,2,4-triazol-3-yl)cyclopentyl)phenyl)-4-(trifluoromethyl)isoindolin-1-one] | C (C indicates <1.24 fold) | C (C indicates <1.24 fold)
22 | CC(c1cc2c(c(C(F)(F)F)c1)CN(c1cccc([C@@H](c3nncn3C)C3CCC3)c1)C2=O)N1CCC[C@H](C)C1 (stereo partly drawn) [Compound 16, 2-(3-((S)-cyclobutyl(4-methyl-4H-1,2,4-triazol-3-yl)methyl)phenyl)-6-(1-((S)-3-methylpiperidin-1-yl)ethyl)-4-(trifluoromethyl)isoindolin-1-one] | A (A indicates >1.39 fold) | A (A indicates >1.39 fold)
